Tested on: Prostaglandin D2 receptor 2, CRTh2 (Homo sapiens)
Experiment: Antagonist activity at CRTH2 receptor (unknown origin) expressed in CHOK1 cells assessed as dissociation half life measured up to 25 hrs by GTPgammaS assay
Conditions: CHO-K1

Compound | T1/2
Cc1c(Cc2ccccc2S(=O)(=O)c2ccccc2)c(-c2ccccc2)nn1CC(=O)O | 1.2 min
COc1ccc(S(=O)(=O)c2ccc(F)cc2)c(Cc2c(C)c(CC(=O)O)c3ccncn23)c1 | 90 min
Cc1c(CC(=O)O)c2ccncn2c1Cc1ccccc1S(=O)(=O)c1ccccc1 | 12 min
Cc1c(Cc2ccccc2S(=O)(=O)c2ccccc2)c2c(n1CC(=O)O)CCNC2=O | 138 min
COc1ccc(S(=O)(=O)c2ccc(F)cc2)c(Cn2cc(CC(=O)O)c3ccc(C)nc32)c1 | 30 min

Source: ChEMBL document CHEMBL3774370, “Structure-activity relationships (SAR) and structure-kinetic relationships (SKR) of sulphone-based CRTh2 antagonists” (Eur J Med Chem, 2016)
